Source: publication PMC10215400, “The Effectiveness of Imipenem–Relebactam against Ceftazidime-Avibactam Resistant Variants of the KPC-2 β-Lactamase” (Antibiotics, 2023)

Chains of the proteins cited; added tags and fusions are not shown. Residues count along the entry.
UniProt Q93LQ9, 25-293 D178Y: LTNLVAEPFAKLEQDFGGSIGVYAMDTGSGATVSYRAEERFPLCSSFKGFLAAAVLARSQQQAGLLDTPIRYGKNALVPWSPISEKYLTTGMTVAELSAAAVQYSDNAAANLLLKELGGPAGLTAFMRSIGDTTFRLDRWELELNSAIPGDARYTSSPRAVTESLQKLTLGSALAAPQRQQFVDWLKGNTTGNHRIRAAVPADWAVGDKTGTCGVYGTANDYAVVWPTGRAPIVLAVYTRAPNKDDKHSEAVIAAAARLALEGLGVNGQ
UniProt Q93LQ9, 25-293 D178N: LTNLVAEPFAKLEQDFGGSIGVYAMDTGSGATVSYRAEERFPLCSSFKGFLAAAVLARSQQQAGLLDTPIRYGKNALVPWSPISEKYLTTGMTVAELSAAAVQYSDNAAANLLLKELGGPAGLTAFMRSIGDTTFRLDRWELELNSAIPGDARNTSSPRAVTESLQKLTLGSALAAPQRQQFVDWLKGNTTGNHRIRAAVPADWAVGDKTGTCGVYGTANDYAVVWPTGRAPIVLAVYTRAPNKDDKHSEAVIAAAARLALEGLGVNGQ

Tests used:
[1] = molecular target: KPC-2 β-lactamase D179Y variant (Klebsiella pneumoniae, UniProt Q93LQ9, D178Y); experiment: time-based mass spectrometry of acyl-complex ([…]); stopped-flow hydrolysis; assay type: binding
[2] = molecular target: KPC-2 β-lactamase D179N variant (Klebsiella pneumoniae, UniProt Q93LQ9, D178N); experiment: stopped-flow hydrolysis progress curves with purified enzyme; timed mass spectrometry; assay type: biochemical

CC(C)(O/N=C(\C(=O)N[C@@H]1C(=O)N2C(C(=O)[O-])=C(C[n+]3ccccc3)CS[C@H]12)c1csc(N)n1)C(=O)O [ceftazidime]
time-based mass spectrometry of acyl-complex (1:50); stopped-flow hydrolysis [1]: acyl-complexes with imipenem and ceftazidime with the D179N variant was captured less often compared to the D179Y variant | stopped-flow hydrolysis progress curves with purified enzyme; timed mass spectro [2]: Conversely, all three β-lactamases hydrolyzed ceftazidime.
